# Measured values taken from patent US11013745B2, “Triazolopyrimidine, triazolopyridine compounds, and the composition thereof for treating PRC2-mediated diseases” (SHANGHAI INSTITUTE OF MATERIA MEDICA, CHINESE ACADEMY OF …, priority 2017, dated 2021).
# Chains of the proteins cited; added tags and fusions are not shown.
# UniProt O75530, whole entry: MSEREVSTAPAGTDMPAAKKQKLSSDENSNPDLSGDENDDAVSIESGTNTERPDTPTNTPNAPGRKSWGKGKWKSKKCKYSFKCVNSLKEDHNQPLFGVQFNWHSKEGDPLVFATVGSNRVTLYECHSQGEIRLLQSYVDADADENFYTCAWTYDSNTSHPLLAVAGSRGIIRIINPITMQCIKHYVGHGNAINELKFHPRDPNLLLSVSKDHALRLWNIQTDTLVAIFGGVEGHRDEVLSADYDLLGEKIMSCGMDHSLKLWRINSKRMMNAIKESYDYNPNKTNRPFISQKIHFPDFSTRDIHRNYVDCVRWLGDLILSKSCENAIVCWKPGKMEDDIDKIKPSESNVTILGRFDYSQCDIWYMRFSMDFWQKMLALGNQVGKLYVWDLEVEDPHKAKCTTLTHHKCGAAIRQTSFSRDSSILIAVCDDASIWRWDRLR
# Target: PRC2 enzyme (Homo sapiens (Human), UniProt O75530)
# Experiment: PRC2 enzyme activity, TR-FRET method
# Type: biochemical
# Method: The TR-FRET method was used to measure the PRC2 enzyme activity. First, the enzyme was mixed with compounds at different concentrations and incubated for 30 min at room temperature. The biotin-labeled histone H3 peptide substrate and the cofactor S-adenosylmethionine (SAM) were added to initiate the enzymatic reaction. After reaction was performed at room temperature for 4 hour, Acceptor and Donor were added and incubated for half an hour. The multifunctional microplate reader EnVision (Perkin Elmer Inc.) was used to detect the fluorescence signal. Data were analyzed using GraphPad Prism 5.0 software, and IC50 values were obtained.
row,Compound,IC50 [nM]
1,Fc1ccc2c(c1CNc1ncc(C3=CCOCC3)c3nncn13)CCO2 [E-Y1],18
2,C1=C(c2cnc(NCc3ccco3)n3cnnc23)CCOC1 [E-Y4],511
3,O=C(NCc1ccccc1)N1CC=C(c2cnc(NCc3ccco3)n3cnnc23)CC1 [E-Y28],107
